Data taken from ChEMBL document CHEMBL2157983 (Bioorg Med Chem Lett, 2011).

Key:
V79 [1] = assay: Antiproliferative activity against Chinese hamster V79 cells assessed as reduction in cell number after 72 hrs; format: cell-based, Cricetulus griseus
V79 [2] = assay: Antiproliferative activity against Chinese hamster V79 cells transfected with Escherichia coli nitroreductase nfsB assessed as reduction in cell number after 72 hrs
V79 [3] = assay: Ratio of IC50 for Chinese hamster V79 cells to IC50 for Chinese hamster V79 cells transfected with Escherichia coli nitroreductase nfsB
SK-OV-3 [4] = assay: Antiproliferative activity against human SKOV3 cells transfected with Escherichia coli nitroreductase nfsB assessed as reduction in cell number after 18 hrs
SK-OV-3 [5] = assay: Ratio of IC50 for human SKOV3 cells to IC50 for human SKOV3 cells transfected with Escherichia coli nitroreductase nfsB

| Compound | IC50 (V79 [1]) [µM] | IC50 (V79 [2]) [µM] | Ratio IC50 (V79 [3]) | IC50 (SK-OV-3 [4]) [µM] | Ratio IC50 (SK-OV-3 [5]) |
| --- | --- | --- | --- | --- | --- |
| O=C(OCc1ccc([N+](=O)[O-])cc1)N(CCCl)CCCl | 45 | 1.6 | 28 | 16 | > 18 |
| O=[N+]([O-])c1ccc(COS(=O)N(CCCl)CCCl)cc1 (configuration not stated) | 62 | 2.9 | – | – | – |
